The entries are a selection whose mix differs from that of the whole data set. Some tests of the compounds listed are not included; inactive here does not mean inactive elsewhere. Activity calls are given as the source filed them. Rule as the data show it: active = inhibition above about 8.5%; inactive = the rest.

The assay has as its system HIV-1 gp120 / PG9 antibody interaction. Put plainly: binders of HIV-1 gp120 antibody PG9, primary screen, biochemical, TR-FRET (AID 624416). The settings on record: TR-FRET gp120-PG9 antibody binding; at 6.7 µM; stronger effect = higher value. For orientation: Time-resolved FRET reads energy transfer from a long-lived donor to a nearby acceptor.
Usually inhibition stands for the relative decrease from the control value, in per cent. For the molecule `CN(C)c1ccc(C(=O)NCC2(N(C)C)CCCCC2)cc1`, the inhibition is inactive: -1.67%.

Take `CN(C)C1CCCC1OC(=O)C(O)(c1ccccc1)c1ccccc1` (stereo unspecified): the inhibition is inactive: 0.02%.

For the molecule `Cc1ccccc1C(=O)NCC1(N2CCCCC2)CCCCC1`, the inhibition is inactive: -1.29%.

On to `COc1ccc(C(=O)NCC2(N(C)C)CCCCC2)cc1`, for which the inhibition was inactive: -1.62%.

For `O=C(NCC1(N2CCCCC2)CCCCC1)c1cccc(Br)c1`, the inhibition is inactive: -2.91%. The value for `CCN1CCCC(OC(=O)C2(O)c3ccccc3C=Cc3ccccc32)C1` (stereo unspecified) was inactive: 1.68%.

Consider `Cc1cc(C(=O)NCC2(N3CCCCC3)CCCCC2)ccc1[N+](=O)[O-]`, for which the inhibition is inactive: -3.04%. As for `O=C(NCC1(N2CCCCC2)CCCCC1)c1cc(F)c(F)cc1Cl`, the inhibition was inactive: -0.36%.

Consider `C=CCN1CCN(CCOC(=O)C(O)(c2ccccc2)c2ccccc2)CC1`, for which the inhibition is inactive: -0.49%. In the case of `CN1[C@@H]2CC[C@H]1CC(OC(=O)C(O)(c1ccccc1)c1ccccc1)C2` (stereo partly specified), the inhibition was inactive: -0.57%. The value for `O=C(NCC1(N2CCCCC2)CCCCC1)c1cc([N+](=O)[O-])ccc1Cl` was inactive: -1.53%; that for `Cc1ccc(C(=O)NCC2(N3CCCCC3)CCCCC2)cc1` was inactive: -0.92%; that for `COc1cc(SC)ccc1C(=O)NCC1(N(C)C)CCCCC1` was inactive: 0.08%. The value for `CCN(CC)CC(C)C(C)OC(=O)C(O)(c1ccccc1)c1ccccc1` (stereo unspecified) was inactive: 0.13%.

On to `CC(C)N1C(=O)CC2(CCN(CCOC(=O)C(O)(c3ccccc3)c3ccccc3)CC2)C1=O`, for which the inhibition is inactive: -0.08%. The value for `O=C(OC1CN2CCC1CC2)C(CO)(c1ccccc1)c1ccccc1` (stereo unspecified) was inactive: -0.3%; that for `O=C(OCCN1CCCC1)C(O)(c1ccccc1)c1ccccc1` was inactive: -0.26%; that for `CC(C)Oc1ccc(C(=O)NCC2(N(C)C)CCCCC2)cc1` was inactive: -2.23%. As to `CN(C)c1cccc(C(=O)NCC2(N(C)C)CCCCC2)c1`, the inhibition is inactive: -3.96%.

As to `C=C(C)C#CC(O)(C(=O)OC1CCN(C)CC1)c1ccccc1` (stereo unspecified), the inhibition is inactive: 0.81%. The value for `COc1ccc(Br)c(C(=O)NCC2(N3CCCCC3)CCCCC2)c1` was inactive: -0.78%; that for `COc1cc(C(=O)NCC2(N(C)C)CCCCC2)c([N+](=O)[O-])cc1OC` was inactive: 0.47%; that for `CN(C)C1(CNC(=O)c2ccc(Br)cc2)CCCCC1` was inactive: -1.31%.

Take `O=C(NCC1(N2CCCCC2)CCCCC1)c1cccc(Cl)c1`: the inhibition was inactive: 0.93%. The value for `COc1ccc(Cl)cc1C(=O)NCC1(N(C)C)CCCCC1` was inactive: -1.3%.

For the molecule `COc1cccc(C(=O)NCC2(N3CCCCC3)CCCCC2)c1`, the inhibition was inactive: -0.6%.
